B1: GluGlu-tagged wild-type Gi1 [not stated] / GST-tagged GINIP protein [not stated] (parent)
chain 1: MGCTLSAEDKAAVERSKMIDRNLREDGEKAAREVKLLLLGAGESGKSTIVKQMKIIHEAGYSEEECKQYKAVVYSNTIQSIIAIIRAMGRLKIDFGDSARADDARQLFVLAGAAEEGFMTAELAGVIKRLWKDSGVQACFNRSREYQLNDSAAYYLNDLDRIAQPNYIPTQQDVLRTRVKTTGIVETHFTFKDLHFKMFDVGGQRSERKKWIHCFEGVTAIIFCVALSDYDLVLAEDEEMNRMHESMKLFDSICNNKWFTDTSIILFLNKKDLFEEKIKKSPLTICYPEYAGSNTYEEAAAYIQCQFEDLNKRKDTKEIYTHFTCATDTKNVQFVFDAVTDVIIKNNLKDCGLF
chain 2: MGVLMSKRQTVEQVQKVSLAVSAFKDGLRDRPSIRRTGELPGSRRGTVEGSVQEVQEEKEAEAGTSVVQEESSAGRAAWERLRDGRGVEPEEFDRTSRFTPPAFIRPTRKLDDDKPPEICLEPREPVVNDEMCDVCEVWTAESLFPCRVCTRVFHDGCLRRMGYIQGDSAAEVTEMAHTETGWSCHYCDNINLLLTEEEMYSLTETFQRCKVIPDCSLTLEDFLRYRHQAAKRGDRDRALSEEQEEQAARQFAALDPEHRGHIEWPDFLSHESLLLLQQLRPQNSLLRLLTVKERERARAAFLARGSGSTVSEAECRRAQHSWFCKRFPEAPSCSVSISHVGPIADSSPASSSSKSQDKTLLPTEQESRFVDWPTFLQENVLYILAARPNSAAIHLKPPG

Variants of: B1
Assay: GINIP pulldown assay (GST-pulldown, IB: GluGlu)
Settings: with GST-tagged GINIP protein; 12 dynes/cm2 laminar 2min; read off a plot
With chain 1 Q306K the response (relative activity) was 1.9.

Same assay, conditions: with GST-tagged GINIP protein; static (no flow); read off a plot
Work on chain 1 Q306K yielded a response (relative activity) of 0.7.
